According to US7855174B2 (priority 2007, dated 2010):
Some compounds may have been tested in ways that are not shown here.

sodium nitroprusside was tested, and the relaxation (rat mesenteric arteries; 10^−5 mol/L SNP, vessels pre-contracted with NE 3×10^−6 mol/L, n=6) was 51.8±5.8%, the EC50 (rat mesenteric arteries; read-out: approximate EC50 in isolated vessels, as restated in Example 3) was 10 µM and the “effect on NE concentration-dependent Ser19 and total pMLC” value (MLC; SNP 10^−5 mol/L or low dose CAL 3×10^−8 mol/L) was “decreases in NE concentration-dependent Ser19 and total pMLC”. For the same substance, the “change of Ser19 pMLC and total pMLC with concentration” value (MLC; agent alone, SNP in vessels pre-contracted with 3×10−6 mol/L NE) was “concentration-dependent decreases in both Ser19 and total pMLC”.
